Source: PMC6912599 (European journal of medicinal chemistry, 2018)

Target: T1, α1β3 GABAAR (Homo sapiens, UniProt P14867+P28472)
T1 sequence (P14867 28-456): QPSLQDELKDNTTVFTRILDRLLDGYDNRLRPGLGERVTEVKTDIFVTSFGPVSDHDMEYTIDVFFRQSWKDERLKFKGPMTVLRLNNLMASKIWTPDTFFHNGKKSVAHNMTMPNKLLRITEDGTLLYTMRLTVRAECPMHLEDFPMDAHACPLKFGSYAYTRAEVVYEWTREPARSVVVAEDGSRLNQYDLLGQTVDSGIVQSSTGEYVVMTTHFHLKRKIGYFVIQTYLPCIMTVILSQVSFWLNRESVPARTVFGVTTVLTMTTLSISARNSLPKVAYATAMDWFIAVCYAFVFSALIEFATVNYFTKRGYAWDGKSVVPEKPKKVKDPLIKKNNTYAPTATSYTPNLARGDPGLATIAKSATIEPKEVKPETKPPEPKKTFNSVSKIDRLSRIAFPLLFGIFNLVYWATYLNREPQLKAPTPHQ
T1 sequence (P28472 26-473): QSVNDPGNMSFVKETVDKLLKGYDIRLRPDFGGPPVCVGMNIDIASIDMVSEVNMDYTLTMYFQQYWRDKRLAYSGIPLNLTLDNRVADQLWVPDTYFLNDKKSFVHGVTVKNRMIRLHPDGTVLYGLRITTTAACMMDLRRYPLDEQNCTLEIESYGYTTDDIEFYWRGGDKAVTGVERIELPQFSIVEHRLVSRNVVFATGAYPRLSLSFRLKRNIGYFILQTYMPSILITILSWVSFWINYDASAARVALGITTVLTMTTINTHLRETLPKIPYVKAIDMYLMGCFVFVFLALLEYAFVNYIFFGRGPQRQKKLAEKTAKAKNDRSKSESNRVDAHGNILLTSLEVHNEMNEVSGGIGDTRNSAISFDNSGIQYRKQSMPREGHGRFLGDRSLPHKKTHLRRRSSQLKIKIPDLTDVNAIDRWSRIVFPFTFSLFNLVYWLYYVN
Assay: Inhibition of [3H]21-pTFDBzox-AP photolabeling of purified α1β3 GABAAR
Format: binding
Settings: purified α1β3 receptor; β3 subunit incorporation; 300 μM GABA

## pregnenolone sulfate
  IC50 inhibition of photolabeling with [3H]21-pTFDBzox-AP: No effect
